# Measurements reported in ChEMBL document CHEMBL3393009 (J Med Chem, 2015).
# By UniProt entry, the sequences of proteins in these tests, tags left out. Where a name states a change or a piece, a line headed by the entry shows the natural chain unless it says otherwise.
# UniProt Q5S007: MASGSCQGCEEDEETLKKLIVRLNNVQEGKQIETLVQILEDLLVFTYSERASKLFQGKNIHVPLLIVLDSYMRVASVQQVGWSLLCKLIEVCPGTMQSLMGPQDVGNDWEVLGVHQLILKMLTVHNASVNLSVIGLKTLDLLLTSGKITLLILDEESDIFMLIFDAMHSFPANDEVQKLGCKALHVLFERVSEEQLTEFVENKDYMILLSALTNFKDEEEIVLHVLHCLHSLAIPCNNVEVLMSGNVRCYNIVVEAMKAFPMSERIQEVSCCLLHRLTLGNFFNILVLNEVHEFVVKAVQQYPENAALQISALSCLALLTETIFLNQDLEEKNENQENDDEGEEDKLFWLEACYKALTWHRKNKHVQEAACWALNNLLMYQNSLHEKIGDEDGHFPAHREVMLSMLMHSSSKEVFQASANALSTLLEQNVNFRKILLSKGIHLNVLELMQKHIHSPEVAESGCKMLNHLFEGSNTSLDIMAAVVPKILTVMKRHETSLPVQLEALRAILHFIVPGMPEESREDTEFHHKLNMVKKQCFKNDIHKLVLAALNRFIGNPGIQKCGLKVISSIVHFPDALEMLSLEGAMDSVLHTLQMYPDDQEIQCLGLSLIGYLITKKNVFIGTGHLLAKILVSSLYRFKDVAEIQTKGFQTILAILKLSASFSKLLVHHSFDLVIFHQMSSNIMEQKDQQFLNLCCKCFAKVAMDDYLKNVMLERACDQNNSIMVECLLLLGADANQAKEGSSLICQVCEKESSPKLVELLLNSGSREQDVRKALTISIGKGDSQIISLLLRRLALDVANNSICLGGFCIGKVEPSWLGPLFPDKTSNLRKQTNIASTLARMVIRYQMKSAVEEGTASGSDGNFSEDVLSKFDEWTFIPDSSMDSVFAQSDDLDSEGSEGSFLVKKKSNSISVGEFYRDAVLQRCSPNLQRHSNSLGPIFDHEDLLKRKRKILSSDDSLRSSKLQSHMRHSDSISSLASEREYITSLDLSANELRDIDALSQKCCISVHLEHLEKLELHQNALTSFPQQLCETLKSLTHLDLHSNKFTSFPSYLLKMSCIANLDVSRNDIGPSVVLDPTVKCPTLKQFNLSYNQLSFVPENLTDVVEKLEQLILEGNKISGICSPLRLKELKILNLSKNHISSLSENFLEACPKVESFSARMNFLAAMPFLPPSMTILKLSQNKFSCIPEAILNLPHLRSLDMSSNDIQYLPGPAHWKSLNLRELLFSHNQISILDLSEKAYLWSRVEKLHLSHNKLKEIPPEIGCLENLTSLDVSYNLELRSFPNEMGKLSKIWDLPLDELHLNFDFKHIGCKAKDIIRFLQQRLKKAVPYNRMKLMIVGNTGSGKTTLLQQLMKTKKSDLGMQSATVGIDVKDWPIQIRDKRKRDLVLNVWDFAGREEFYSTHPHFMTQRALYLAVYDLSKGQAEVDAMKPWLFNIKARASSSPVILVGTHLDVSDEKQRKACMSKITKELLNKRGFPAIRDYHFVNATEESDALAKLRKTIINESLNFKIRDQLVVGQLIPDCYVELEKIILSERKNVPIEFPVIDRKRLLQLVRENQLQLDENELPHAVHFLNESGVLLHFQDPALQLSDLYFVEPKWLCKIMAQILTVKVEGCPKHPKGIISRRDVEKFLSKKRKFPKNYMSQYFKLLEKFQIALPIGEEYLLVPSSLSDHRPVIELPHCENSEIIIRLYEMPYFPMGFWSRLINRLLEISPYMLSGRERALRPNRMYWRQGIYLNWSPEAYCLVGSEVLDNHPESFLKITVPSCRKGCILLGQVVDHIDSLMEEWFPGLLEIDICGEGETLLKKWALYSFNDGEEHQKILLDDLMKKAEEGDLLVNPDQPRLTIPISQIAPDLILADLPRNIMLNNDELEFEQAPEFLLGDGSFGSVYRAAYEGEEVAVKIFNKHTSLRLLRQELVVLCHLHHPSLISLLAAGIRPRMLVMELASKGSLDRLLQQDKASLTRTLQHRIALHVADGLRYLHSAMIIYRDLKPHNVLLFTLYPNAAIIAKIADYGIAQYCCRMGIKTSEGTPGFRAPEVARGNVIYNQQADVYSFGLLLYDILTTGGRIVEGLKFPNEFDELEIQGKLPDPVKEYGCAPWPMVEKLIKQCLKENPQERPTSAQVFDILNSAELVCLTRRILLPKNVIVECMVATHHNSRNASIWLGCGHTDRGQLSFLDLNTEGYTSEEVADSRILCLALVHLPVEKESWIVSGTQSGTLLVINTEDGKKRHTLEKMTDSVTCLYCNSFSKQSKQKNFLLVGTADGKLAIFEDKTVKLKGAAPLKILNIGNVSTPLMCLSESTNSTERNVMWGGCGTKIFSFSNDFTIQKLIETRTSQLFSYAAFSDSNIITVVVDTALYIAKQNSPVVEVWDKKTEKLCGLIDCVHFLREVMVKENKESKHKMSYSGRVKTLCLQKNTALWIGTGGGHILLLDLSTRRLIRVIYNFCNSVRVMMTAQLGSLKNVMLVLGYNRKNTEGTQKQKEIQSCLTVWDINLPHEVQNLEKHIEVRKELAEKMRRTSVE
# Assays:
# [1] = target: T1, Leucine-rich repeat serine/threonine-protein kinase 2 (Homo sapiens, UniProt Q5S007); experiment: Inhibition of GST-tagged truncated human recombinant LRRK2 using fluorescein-labeled LRRKtide peptide substrate incubated for 2 hrs
# How it was run: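 LRRK2 enzyme with fluorescein-LRRKtide in 50 mM HEPES pH 7.5, 3 mM MgCl2, 2 mM DTT, 0.01% Brij35. Final levels: 100 nM LRRKtide, 50 μM ATP, 1.7 μg/mL enzyme. Compound 11-point half-log series, top 32 μM. Reaction at room temperature, 2 h for wild type and 90 min for mutant. Stopped with EDTA plus Tb anti-phospho-ERM. TR-FRET 520/495 ratio read after 1 h. Geometric mean, n ≥ 2.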
# [2] = target: T1, Leucine-rich repeat serine/threonine-protein kinase 2; experiment: Inhibition of full length LRRK2 (unknown origin) expressed in HEK293 cells assessed as reduction in S935 phosphorylation incubated for 90 mins by ELISA method; format: cell-based
# How it was run: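 HEK293 cells transiently transfected with full-length LRRK2 (Lipofectamine 2000), then grown overnight in DMEM + 10% FBS. Plated at 10 000 cells/well and treated with a compound dose series for 90 min at 37 °C. Lysed with phosphatase/protease inhibitors. LRRK2 captured with anti-LRRK2 antibody, detected with anti-pS935 (1:2000) plus HRP secondary, chemiluminescent read-out. Geometric mean, n ≥ 2.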
# [3] = target: T2, Serine/threonine-protein kinase 3 (Homo sapiens, UniProt Q13188); experiment: Inhibition of human recombinant MST2 using Ser/Thr peptide 7 substrate after 45 mins by Z-Lyte assay
# T2 sequence (Q13188 whole entry): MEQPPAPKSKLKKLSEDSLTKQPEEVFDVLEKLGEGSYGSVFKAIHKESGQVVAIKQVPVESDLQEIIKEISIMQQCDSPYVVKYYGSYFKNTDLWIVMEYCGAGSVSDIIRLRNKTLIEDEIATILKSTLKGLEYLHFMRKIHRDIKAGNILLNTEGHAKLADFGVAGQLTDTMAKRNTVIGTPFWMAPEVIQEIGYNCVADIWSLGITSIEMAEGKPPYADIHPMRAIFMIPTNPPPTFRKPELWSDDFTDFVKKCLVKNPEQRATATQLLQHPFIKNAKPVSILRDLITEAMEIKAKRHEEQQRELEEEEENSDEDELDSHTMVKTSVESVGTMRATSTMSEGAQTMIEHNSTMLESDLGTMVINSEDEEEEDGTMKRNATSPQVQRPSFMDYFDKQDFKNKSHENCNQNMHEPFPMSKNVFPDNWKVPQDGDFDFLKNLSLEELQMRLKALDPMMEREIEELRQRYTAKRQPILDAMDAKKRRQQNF
# How it was run: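 Z-Lyte FRET assay, final 2 μM Ser/Thr peptide 7, 75 μM ATP, 18 nM kinase. Buffer 50 mM HEPES (pH 7.0 for MST2, 7.5 for MST4), 10 mM MgCl2, 1 mM EGTA, 0.01% Brij-35. Stopped at 45 min (MST2) or 60 min (MST4). Excitation 400 nm, emission 445/520 ratio converted to percent phosphorylation for IC50.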
IC50 [1] [nM],IC50 [2] [nM],IC50 [3] [nM],Compound
204,,,Cc1nc([C@H]2CN(c3ncnc4[nH]cc(-c5cccc(C#N)c5)c34)CCO2)no1
,133,,Cc1nc([C@@H]2CN(c3ncnc4[nH]cc(-c5cccc(C#N)c5)c34)CCO2)no1
139,3690,626,N#Cc1cccc(-c2c[nH]c3ncnc(N4CC5CCOC5C4)c23)c1 (stereo not given)
